Assay results published in the METLIN SMRT retention time set (Domingo-Almenara et al. 2019).

Test: gradient 5% acetonitrile 3 min, to 50% in 2 min, to 85% in 15 min, held 3 min, 100 µL/min
Conditions: column: Zorbax Extend-C18 2.1 x 50 mm; eluents: water / acetonitrile, 0.1% formic acid
Summary of the method: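 Values are retention times taken from adduct peaks that software picked and an analyst inspected. The pure standards were run as mixtures of ~100 molecules on HPLC linked to a quadrupole time-of-flight mass spectrometer, in positive and negative ionization mode. A Zorbax Extend-C18 column (2.1 × 50 mm, 1.8 μm) was used at 100 μL/min with water and acetonitrile, each including 0.1% formic acid.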

NC(=NCCc1ccc(I)cc1)SCCCc1cnc[nH]1
RP-LC retention time: 640 s
